Test results taken from ChEMBL document CHEMBL5252509, “In depth analysis of kinase cross screening data to identify chemical starting points for inhibition of the Nek family of kinases” (Medchemcomm, 2018).

The chains behind the UniProt entries cited, without tags or fusion partners. Where a name states a change or a piece, a line headed by the entry shows the natural chain unless it says otherwise.
UniProt P53779: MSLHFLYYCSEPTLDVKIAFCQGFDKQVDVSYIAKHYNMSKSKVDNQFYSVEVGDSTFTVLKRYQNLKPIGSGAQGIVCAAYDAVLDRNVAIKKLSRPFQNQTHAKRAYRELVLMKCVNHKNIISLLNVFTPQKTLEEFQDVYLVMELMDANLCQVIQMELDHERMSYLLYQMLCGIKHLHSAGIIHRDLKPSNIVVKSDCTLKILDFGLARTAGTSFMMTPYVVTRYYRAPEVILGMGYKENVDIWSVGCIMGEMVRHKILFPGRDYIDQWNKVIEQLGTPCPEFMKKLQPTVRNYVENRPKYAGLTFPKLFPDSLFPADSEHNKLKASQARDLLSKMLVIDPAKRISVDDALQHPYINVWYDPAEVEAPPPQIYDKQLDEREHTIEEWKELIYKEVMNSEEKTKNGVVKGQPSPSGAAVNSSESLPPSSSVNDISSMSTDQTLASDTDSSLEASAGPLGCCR

Assays:
[1] = target: Mitogen-activated protein kinase 10 (Homo sapiens, UniProt P53779); test: Inhibition of JNK3 (unknown origin)
[2] = target: T1, Eukaryotic translation initiation factor 2-alpha kinase 3 (Homo sapiens, UniProt Q9NZJ5); test: Inhibition of PERK (unknown origin)
T1 sequence (Q9NZJ5 whole entry): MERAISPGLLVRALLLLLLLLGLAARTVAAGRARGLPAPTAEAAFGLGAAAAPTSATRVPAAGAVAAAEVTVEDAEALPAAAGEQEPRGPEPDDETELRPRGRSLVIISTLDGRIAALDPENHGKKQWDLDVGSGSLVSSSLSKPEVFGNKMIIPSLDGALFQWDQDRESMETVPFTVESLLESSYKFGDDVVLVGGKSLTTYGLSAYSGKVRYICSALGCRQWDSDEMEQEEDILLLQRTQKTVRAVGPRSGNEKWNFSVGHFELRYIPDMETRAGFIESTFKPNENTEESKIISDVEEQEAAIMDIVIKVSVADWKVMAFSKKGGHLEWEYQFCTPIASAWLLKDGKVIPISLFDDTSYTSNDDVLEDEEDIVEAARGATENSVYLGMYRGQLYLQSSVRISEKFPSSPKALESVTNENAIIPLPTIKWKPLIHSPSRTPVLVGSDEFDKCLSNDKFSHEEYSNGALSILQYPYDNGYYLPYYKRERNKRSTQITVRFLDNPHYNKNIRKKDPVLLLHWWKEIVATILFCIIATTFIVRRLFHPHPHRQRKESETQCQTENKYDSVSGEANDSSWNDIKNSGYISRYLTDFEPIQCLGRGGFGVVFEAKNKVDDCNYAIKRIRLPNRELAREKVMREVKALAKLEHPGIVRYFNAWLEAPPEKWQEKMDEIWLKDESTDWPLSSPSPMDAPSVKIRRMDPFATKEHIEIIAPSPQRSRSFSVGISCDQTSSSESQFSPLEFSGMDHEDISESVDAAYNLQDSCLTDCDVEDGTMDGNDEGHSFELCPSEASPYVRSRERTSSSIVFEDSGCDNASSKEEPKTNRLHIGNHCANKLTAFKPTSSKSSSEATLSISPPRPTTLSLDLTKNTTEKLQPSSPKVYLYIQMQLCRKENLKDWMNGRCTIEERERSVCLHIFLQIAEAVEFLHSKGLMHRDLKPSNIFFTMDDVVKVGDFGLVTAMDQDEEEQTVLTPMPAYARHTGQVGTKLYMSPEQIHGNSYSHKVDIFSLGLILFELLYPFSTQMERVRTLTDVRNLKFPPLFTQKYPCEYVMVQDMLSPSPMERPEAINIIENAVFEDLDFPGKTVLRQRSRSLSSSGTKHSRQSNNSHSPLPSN

SMILES | IC50 [1] [nM] | IC50 [2] [nM]
CN(C)C/C=C/C(=O)Nc1cccc(C(=O)Nc2ccc(Nc3nccc(-c4cccnc4)n3)cc2)c1 | 13 | 
Nc1ncc(-c2cccnc2)c2scc(-c3ccc4c(c3)CCN4C(=O)Cc3ccccc3)c12 |  | < 15
